The results in this text go back to patent US20070208088A1, “PQS: A NEW HYDROTROPE FOR SOLUBILIZING LIPOPHILIC COMPOUNDS IN WATER” (ZYMES, LLC, priority 2006, published 2007).

“polyoxyethanyl-ubiquinol-sebacate [PQS-600]”: the solubility in water result is “water-soluble”. As for “polyoxyethanyl-ubiquinol-sebacate [PQS-1000]”, the solubility in water result is reported as “water soluble”.
